Results reported in PMC11203531, “Engineered CD147-Deficient THP-1 Impairs Monocytic Myeloid-Derived Suppressor Cell Differentiation but Maintains Antibody-Dependent Cellular Phagocytosis Function for Jurkat T-ALL Cells with Humanized Anti-CD147 Antibody” (International Journal of Molecular Sciences, 2024).

The chains behind the UniProt entries cited, without tags or fusion partners. A line that says so, or that is headed by a name, gives the form on record, which may keep a tag or linker.
UniProt P35613, other isoform, or with tags, fused parts or gaps: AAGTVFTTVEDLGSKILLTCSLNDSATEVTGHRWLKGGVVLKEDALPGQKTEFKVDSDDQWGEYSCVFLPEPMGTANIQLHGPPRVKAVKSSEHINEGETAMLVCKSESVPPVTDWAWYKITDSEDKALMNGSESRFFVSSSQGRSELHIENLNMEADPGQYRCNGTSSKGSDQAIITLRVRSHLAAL

Target: T1, Human CD147, tagged with His (Sino Biological) (Homo sapiens, UniProt P35613-2)
T1 construct: CD147 (EMMPRIN, basigin), human; source: bought: Sino Biological
Assay: BLI; Octet K2; His-tagged human CD147 (50 μg/mL) immobilised on anti-penta HIS (HIS1K) biosensors; antibody at various concentrations in solution; 0.1% BSA, 0.02% Tween-20 in PBS, 30 °C; 1:1 fitting, KD = kd/ka
Details: both partners purified

B1: HuM6-1B9, fully humanized anti-CD147 antibody (IgG1/κ) (antibody, V domains shown)
VH: EVQLVESGGGLVQPGGSLRLSCAASGFTFSSYAMSWVRQAPGKGLEWVATISSGGTYTYYPDSVKGRFTISRDNSKNTLYLQMNSLRAEDTAVYYCARFRNGAYWGQGTLVTVSS
VL: DIQMTQSPSSLSASVGDRVTITCSVSSSISSSNLHWYQQKPGKAPKPWIYGTSNLASGVPSRFSGSGSGTDYTLTISSLQPEDFATYYCQQWSNYPLTFGQGTKVEIK
Kd: 2.05 nM
